Assay results as given in US20250354115A1, “METHOD FOR PRODUCING STEM CELLS AND METHOD FOR PRODUCING GAMMA DELTA T CELLS” (I Peace, Inc., priority 2022, published 2025).

Test system: Human peripheral blood mononuclear cells
Experiment: iPS cell establishment with IL-2 only versus IL-4, IL-9 and IL-18 in zoledronic acid-containing medium (Example 7)
Type: cell-based
Conditions: interleukins added to zoledronic acid-containing medium; PCR
Description: Human peripheral blood mononuclear cells were added to the zoledronic acid-containing medium according to Example 2, and a medium containing approximately 1×10^6 mononuclear cells was placed into a 24-well plate (Day 1). No interleukin was added to the medium of the first group. To the medium of the second group, 1 μL of 20 μg/mL IL-2 was added daily. To the medium of the third group, 1 μL of 20 μg/mL IL-9 was added daily. To the medium of the fourth group, 1 μL of 20 μg/mL IL-18 was added daily. To the medium of the fifth group, 1 μL of 20 μg/mL IL-4 was added daily. To the medium of the sixth group, 1 μL each of 20 μg/mL IL-9 and 20 μg/mL IL-18 was added daily. To the medium of the seventh group, 1 μL each of 20μg/mL IL-4 and 20 μg/mL IL-18 was added daily. To the medium of the eighth group, 1 L each of 20 μg/mL IL-4, 20 μg/mL IL-9, and 20 μg/mL IL-18 was added daily. In addition, a zoledronic acid-free medium identical to the zoledronic acid-containing medium according to Example 2, except for the absence of zoledronic acid, was prepared, and 1 μL of 20 μg/mL IL-2 was added daily to the zoledronic acid-free medium of the ninth group of mononuclear cells.
On the third day, the culture medium containing the cells was collected from the plate, centrifuged, and the supernatant was removed. […]

IL-2: interleukin, the only interleukin added to the zoledronic acid-containing medium
iPS cell lines containing the recombined Vγ9 gene with the JP gene: 28% | iPS cell lines possessing a recombined Vγ9 gene with the JP gene: 7 out of 27
